SMILES strings stand for the structures. “And” between values parts separate entries of the source, which are not always exact repeats. Equal values may be shown once. For some assays here: This list holds what a sample rich in hits left over. Results filed as inconclusive are left out. The entries are a selection whose mix differs from that of the whole data set. The source made the active and inactive calls. Unless noted, calls follow the shape of the dose curve; as a rule, active = well fitted curve in the direction sought with a large enough effect in the repeat runs; inconclusive = weak or mixed curves; inactive = no such curve, though single readings can be large; an effect the other way counts as inactive or inconclusive.

Sequences of proteins named here, by UniProt entry; tags and fusion partners are left off. A change or cut given only in a name is not applied to a line headed by its entry.
UniProt Q14994: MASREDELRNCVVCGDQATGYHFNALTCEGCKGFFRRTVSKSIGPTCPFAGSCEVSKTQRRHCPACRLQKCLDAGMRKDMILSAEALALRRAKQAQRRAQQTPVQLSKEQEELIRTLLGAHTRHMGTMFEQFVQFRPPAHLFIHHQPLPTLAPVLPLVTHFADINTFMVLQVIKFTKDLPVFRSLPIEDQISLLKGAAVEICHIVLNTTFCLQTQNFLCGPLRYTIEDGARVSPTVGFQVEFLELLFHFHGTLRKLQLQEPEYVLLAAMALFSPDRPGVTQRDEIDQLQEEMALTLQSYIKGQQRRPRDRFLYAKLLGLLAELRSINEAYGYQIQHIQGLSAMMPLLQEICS
UniProt Q92731, whole entry, looked up: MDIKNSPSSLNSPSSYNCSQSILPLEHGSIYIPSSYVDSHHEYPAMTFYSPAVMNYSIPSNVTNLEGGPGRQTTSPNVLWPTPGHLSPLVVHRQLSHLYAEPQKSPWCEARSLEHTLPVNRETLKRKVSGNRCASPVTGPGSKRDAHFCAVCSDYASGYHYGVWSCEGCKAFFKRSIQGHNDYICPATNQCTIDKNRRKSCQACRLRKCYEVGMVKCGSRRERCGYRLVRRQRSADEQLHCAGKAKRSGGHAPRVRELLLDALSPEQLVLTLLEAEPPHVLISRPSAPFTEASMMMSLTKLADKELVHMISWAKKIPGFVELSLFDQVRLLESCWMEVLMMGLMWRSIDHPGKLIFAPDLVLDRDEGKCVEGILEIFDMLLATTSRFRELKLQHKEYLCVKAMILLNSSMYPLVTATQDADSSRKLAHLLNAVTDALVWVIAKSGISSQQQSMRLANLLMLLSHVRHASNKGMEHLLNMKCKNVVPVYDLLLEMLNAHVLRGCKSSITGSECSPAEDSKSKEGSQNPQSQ
UniProt P10275: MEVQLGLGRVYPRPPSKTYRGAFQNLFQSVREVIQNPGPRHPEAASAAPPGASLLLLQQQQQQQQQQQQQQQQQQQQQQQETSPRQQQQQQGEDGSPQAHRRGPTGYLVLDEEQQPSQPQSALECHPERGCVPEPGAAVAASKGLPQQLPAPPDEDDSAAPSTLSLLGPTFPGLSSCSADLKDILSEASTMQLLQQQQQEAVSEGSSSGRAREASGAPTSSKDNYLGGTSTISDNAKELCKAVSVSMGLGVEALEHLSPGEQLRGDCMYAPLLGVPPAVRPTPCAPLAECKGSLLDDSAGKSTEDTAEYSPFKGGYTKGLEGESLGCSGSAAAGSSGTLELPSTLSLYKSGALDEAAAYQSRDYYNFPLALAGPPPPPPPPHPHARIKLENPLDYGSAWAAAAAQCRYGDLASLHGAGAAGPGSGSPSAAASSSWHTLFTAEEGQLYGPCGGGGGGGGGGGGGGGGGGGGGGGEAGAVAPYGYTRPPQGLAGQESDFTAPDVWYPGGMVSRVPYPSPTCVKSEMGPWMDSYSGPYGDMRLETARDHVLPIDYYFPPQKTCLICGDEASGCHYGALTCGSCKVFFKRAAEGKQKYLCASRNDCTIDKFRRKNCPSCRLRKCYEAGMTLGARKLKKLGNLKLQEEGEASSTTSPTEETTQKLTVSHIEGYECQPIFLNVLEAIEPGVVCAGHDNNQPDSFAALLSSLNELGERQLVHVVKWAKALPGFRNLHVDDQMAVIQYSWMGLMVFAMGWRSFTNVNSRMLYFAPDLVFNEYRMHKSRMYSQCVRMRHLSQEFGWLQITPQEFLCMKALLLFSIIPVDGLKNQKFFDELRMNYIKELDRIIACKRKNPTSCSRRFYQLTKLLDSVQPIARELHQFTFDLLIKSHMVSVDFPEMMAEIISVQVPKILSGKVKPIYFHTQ
UniProt P35869: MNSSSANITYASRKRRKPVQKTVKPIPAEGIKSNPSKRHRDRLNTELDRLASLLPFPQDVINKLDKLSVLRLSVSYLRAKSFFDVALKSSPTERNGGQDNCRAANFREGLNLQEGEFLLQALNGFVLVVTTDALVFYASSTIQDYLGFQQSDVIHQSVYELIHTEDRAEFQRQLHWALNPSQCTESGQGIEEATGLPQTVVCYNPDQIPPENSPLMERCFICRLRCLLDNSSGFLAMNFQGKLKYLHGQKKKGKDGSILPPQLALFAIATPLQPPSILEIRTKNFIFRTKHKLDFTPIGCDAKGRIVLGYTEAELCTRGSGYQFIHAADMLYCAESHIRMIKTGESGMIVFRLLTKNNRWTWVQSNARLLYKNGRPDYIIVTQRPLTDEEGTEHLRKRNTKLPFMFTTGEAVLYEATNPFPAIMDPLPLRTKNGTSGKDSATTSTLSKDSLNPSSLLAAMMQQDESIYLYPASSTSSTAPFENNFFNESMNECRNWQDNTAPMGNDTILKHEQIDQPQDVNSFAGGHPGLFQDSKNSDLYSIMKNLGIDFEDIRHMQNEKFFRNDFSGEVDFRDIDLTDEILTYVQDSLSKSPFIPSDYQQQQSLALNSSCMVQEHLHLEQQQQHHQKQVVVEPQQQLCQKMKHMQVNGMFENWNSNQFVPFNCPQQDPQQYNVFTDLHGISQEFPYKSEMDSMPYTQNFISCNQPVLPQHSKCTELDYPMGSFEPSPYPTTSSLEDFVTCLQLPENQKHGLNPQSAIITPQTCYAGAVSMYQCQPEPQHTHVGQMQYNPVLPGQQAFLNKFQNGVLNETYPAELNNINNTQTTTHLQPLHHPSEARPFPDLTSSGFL

Assay [1] concerns the target Nuclear receptor subfamily 1 group I member 3 (Homo sapiens) (UniProt Q14994). In words: qHTS assay to identify small molecule agonists of the constitutive androstane receptor (CAR) signaling pathway (AID 1224839).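 Also: HepG2 cells stably carrying human CAR and a CYP2B6 luciferase reporter; nearly all actives have a fitted effect of over 15% in size.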 Particulars: HepG2 hCAR CYP2B6-luciferase, agonist mode, 24 h.
Assay [2] is described as follows: qHTS assay to identify small molecule antagonists of the retinoic acid receptor (RAR) signaling pathway (AID 1159552; also: nearly all actives have a fitted effect of over 50% in size; also: potency is read from the fitted curve at half-maximal effect). In a few lines: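 C3RL4 RARE-luc cells, overnight plating; retinol 1 uM final added right after compound; 6 hr 37 C; luciferase read at 30 min RT.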
On the technique in general: Quantitative high-throughput screening tests each substance at several concentrations.

The target of assay [3] is Estrogen receptor beta (Homo sapiens) (UniProt Q92731). Description: qHTS assay to identify small molecule antagonists of the estrogen receptor beta (ER-beta) signaling pathway (AID 1259378; active = well fitted inhibition curve with a large enough effect in the signal ratio in the repeat runs, not every such curve was filed as active; the % refers to the signal ratio). An outline of the steps: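 ER-beta-UAS-bla HEK293T (GripTite) cells in 2% charcoal-stripped FBS medium were preincubated 6 hr at 37C, dosed with compound, then stimulated with 1 nM E2 (final) for 16 hr; beta-lactamase reporter read by B/G FRET fluorescence after 2 hr substrate loading.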

Assay [4] has as its target Nuclear receptor subfamily 1 group I member 2 (Homo sapiens) (UniProt O75469). In words: Human pregnane X receptor (PXR) small molecule agonists, qHTS assay (AID 1346982). Also: nearly all actives have a fitted effect of over 35% in size. In a few lines: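 Luciferase signal from ONE-Glo (30 min, room temperature) measured activation of hPXR-driven CYP3A4 reporter expression in PXR-Luc HepG2 cells treated with compounds for 24 hr at 37 C.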

For assay [5] the target is unchanged. In words: CYP3A4 induction through human pregnane X receptor (PXR) by small molecules, qHTS assay (AID 1346984). Also: nearly all actives have a fitted effect of over 40% in size. In a few lines:
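Luminescence readout: luciferase signal after One-Glo (30 min, room temperature), following 3 h at 37C with 3uM final Luciferin-IPA P450 substrate. Cells were DPX-2 (HepG2, PXR/CYP3A4-luc co-transfected) dosed for 24 h.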

For assay [6] the target is unchanged. Description: Human pregnane X receptor (PXR) activation by small molecules, qHTS assay (AID 1346985). Also: nearly all actives have a fitted effect of over 40% in size.
The target in assay [7] is Nuclear receptor subfamily 1 group I member 3 (Homo sapiens) (UniProt Q14994). Description: qHTS assay to identify small molecule antagonists of the constitutive androstane receptor (CAR) signaling pathway (AID 1224838).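 Also: HepG2 cells stably expressing hCAR with CYP2B6 luciferase reporter stimulated by CITCO; nearly all actives have a fitted effect of over 40% in size.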 Particulars: HepG2-CYP2B6-hCAR luciferase, CITCO-stimulated, 24 h; at 42.5 µM (top of the series).
Assay [8] deals with Androgen receptor (Homo sapiens) (UniProt P10275). In words: qHTS assay to identify small molecule antagonists of the androgen receptor (AR) signaling pathway (AID 743035; active = well fitted inhibition curve with a large enough effect in the signal ratio in the repeat runs, not every such curve was filed as active; the % refers to the signal ratio).
Assay [9] shares this target. In words: qHTS assay to identify small molecule agonists of the androgen receptor (AR) signaling pathway using the MDA cell line (AID 743040; also: nearly all actives have a fitted effect of over 20% in size). Particulars: MDA-kb2 AR-luc cells, MMTV luciferase, 16 h; at 70.3 µM (top of the series); active compounds read high.
Assay [10] has the same target. Description: qHTS assay to identify small molecule antagonists of the androgen receptor (AR) signaling pathway using the MDA cell line in the presence of 0.5 nM R1881 (AID 1259243). Also: nearly all actives have a fitted effect of over 50% in size. Also: potency is read from the fitted curve at half-maximal effect.
Assay [11] shares this target. In words: qHTS assay to identify small molecule agonists of the androgen receptor (AR) signaling pathway in the presence of an antagonist (AID 1259381; calls by dose curve; also: nearly all actives have a fitted effect of over 15% in size; also: potency is read from the fitted curve at half-maximal effect).
Assay [12] concerns the target Aryl hydrocarbon receptor (Homo sapiens) (UniProt P35869). In words: qHTS assay to identify small molecule that activate the aryl hydrocarbon receptor (AhR) signaling pathway (AID 743085).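 Also: HG2L7.5c1 human HepG2 liver cells with stably integrated DRE-driven firefly reporter; nearly all actives have a fitted effect of over 15% in size.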 The note with it: HepG2 AhR-luc (HG2L7.5c1), luciferase, 24 h.
For assay [13], the target named is Androgen receptor (Homo sapiens) (UniProt P10275). In words: qHTS assay to identify small molecule antagonists of the androgen receptor (AR) signaling pathway using the MDA cell line (AID 743042; also: nearly all actives have a fitted effect of over 55% in size; also: potency is read from the fitted curve at half-maximal effect).
Assay [14] is described as follows: qHTS assay to identify small molecule antagonists of the estrogen related receptor signaling pathway with the pleiotropic PPARgamma coactivator (PGC) from Tox21 10K library (AID 1224841; call rule not given here; also: actives are mostly falling curves and most rising ones were filed inactive; nearly all actives have a fitted effect of over 50% in size). The note with it: PGC/ERR reporter cell line, ONE-Glo luciferase, 18 h; at 92.4 µM (top of the series).
% is scaled to controls: 0 for no effect and ±100 for the full control effect.

Regarding `O=C(O)Cc1ccccc1Nc1c(Cl)cccc1Cl`, the activation in assay [1] (at 42.5 µM (top of the series)) is inactive: 2.28%; in assay [1] (at 92.4 µM (top of the series)), inactive: 0.768%.

For `CCN(C)C(=O)Oc1cccc([C@H](C)N(C)C)c1`, in assay [2], the Potency entry is “inactive”.

Regarding `O=C1NS(=O)(=O)c2ccccc21`, the Potency result in assay [2], in assay [3], in assay [4], in assay [5] and in [6] was “inactive” throughout.

Take `CSc1ccc(C(=O)c2[nH]c(=O)[nH]c2C)cc1`: in assay [7], the activity, negative = inhibition was inactive: 2.21%.

Consider `CCCCCCCCOc1ccccc1C(=O)Nc1ccc(C(=O)OCC[N+](C)(CC)CC)cc1`, for which the Potency entry in assay [8], in assay [10] and in [11] was “inactive” each time. Also, in [9], the activity change was inactive: -10.1%. Besides, the Potency in assay [2] is active: 29.8 µM.

As to `NS(=O)(=O)c1cc(C(=O)O)c(NCc2ccco2)cc1Cl`, the activation in assay [12] (at 70.3 µM (top of the series)) is inactive: -0.964%; in assay [12] (at 95 µM (top of the series)) it was inactive: -0.528%. Further, the Potency result in assay [2] is “inactive”.

Regarding `NC1CCN(c2nc3c(cc2F)c(=O)c(C(=O)O)cn3-c2ccc(F)cc2F)C1` (centres undefined), the activity change in assay [9] is inactive: 3.35%. Further, the Potency entry in [13] and in [10] was “inactive” throughout. Also, the Potency in assay [11] was active: 29.8 µM.

As for `C=C[C@H]1CN2CC[C@H]1C[C@H]2[C@H](O)c1ccnc2ccc(OC)cc12`, the activation is inactive: 1.59% in assay [1] (at 42.5 µM (top of the series)) and inactive: 11.5% in assay [1] (at 92.4 µM (top of the series)).

For `COc1ccccc1OCCNCC(O)COc1cccc2[nH]c3ccccc3c12` (centres undefined), the Potency result in assay [2] was “inactive”.

Consider `CC(N=C(NC#N)Nc1ccncc1)C(C)(C)C` (centres undefined), for which the Potency entry in [2], in [3], in assay [4], in [5] and in assay [6] was “inactive” throughout.

On to `CC(C)(C)C(=O)Oc1ccc(S(=O)(=O)Nc2ccccc2C(=O)NCC(=O)O)cc1`, for which the Potency entry in assay [2] and in assay [3] was “inactive” each time.

Regarding `NC(=O)CC[C@@H]1NC(=O)[C@H](Cc2ccccc2)NC(=O)[C@H](Cc2ccc(O)cc2)NC(=O)CCSSC[C@@H](C(=O)N2CCC[C@H]2C(=O)N[C@@H](CCCN=C(N)N)C(=O)NCC(N)=O)NC(=O)[C@H](CC(N)=O)NC1=O`, the Potency result in assay [2] is “inactive”.

Consider `[O-]/[N+](=N\O)c1ccccc1`, for which the Potency entry in assay [2] was “inactive”. For the same compound, in assay [14], the activity, negative = inhibition is inactive: 40.9% and inactive: 12.2%.

As to `NC(=O)C(c1ccccc1)(c1ccccc1)[C@@H]1CCN(CCc2ccc3c(c2)CCO3)C1`, the Potency entry in assay [2] and in [3] was “inactive” throughout.

Consider `CC1(C)[C@@H](O[C@H]2O[C@H](C(=O)O)[C@@H](O)[C@H](O)[C@H]2O[C@@H]2O[C@H](C(=O)O)[C@@H](O)[C@H](O)[C@H]2O)CC[C@]2(C)[C@H]3C(=O)C=C4[C@@H]5C[C@@](C)(C(=O)O)CC[C@]5(C)CC[C@@]4(C)[C@]3(C)CC[C@@H]12`, for which the Potency result in [2] and in assay [3] was “inactive” throughout.

With `NCCCC[C@H](N[C@@H](CCc1ccccc1)C(=O)O)C(=O)N1CCC[C@H]1C(=O)O`, the activation in [1] (at 42.5 µM (top of the series)) was inactive: -0.524%. Moreover, the Potency entry in assay [6] is “inactive”.

On to `CO[C@@H]1[C@@H](OC)[C@H](C)[C@@](O)(CC(=O)O)O[C@H]1[C@H](C)[C@H]1O[C@@]2(CC[C@@](C)([C@H]3CC[C@@](C)([C@@H]4O[C@@H]([C@H]5O[C@](C)(O)[C@H](C)C[C@@H]5C)C[C@@H]4OC4C[C@H](OC)[C@@H](OC)[C@H](C)O4)O3)O2)C[C@H](O)[C@H]1C` (some centres undefined), for which the activity change in assay [9] was inactive: -10.1%. In addition, the Potency is active: 0.596 µM in assay [13] and active: 0.841 µM in [10]. For the same compound, the Potency result in assay [11] is “inactive”.
